Measurements reported in PubChem BioAssay AID1018 (Sanford-Burnham Center for Chemical Genomics, 2008).
Only a part is listed here, and it is no random draw. The source made the active and inactive calls. Rule as the data show it: active = displacement above about 50%; inactive = the rest.

The chains behind the UniProt entries cited, without tags or fusion partners.
UniProt P98170, whole entry: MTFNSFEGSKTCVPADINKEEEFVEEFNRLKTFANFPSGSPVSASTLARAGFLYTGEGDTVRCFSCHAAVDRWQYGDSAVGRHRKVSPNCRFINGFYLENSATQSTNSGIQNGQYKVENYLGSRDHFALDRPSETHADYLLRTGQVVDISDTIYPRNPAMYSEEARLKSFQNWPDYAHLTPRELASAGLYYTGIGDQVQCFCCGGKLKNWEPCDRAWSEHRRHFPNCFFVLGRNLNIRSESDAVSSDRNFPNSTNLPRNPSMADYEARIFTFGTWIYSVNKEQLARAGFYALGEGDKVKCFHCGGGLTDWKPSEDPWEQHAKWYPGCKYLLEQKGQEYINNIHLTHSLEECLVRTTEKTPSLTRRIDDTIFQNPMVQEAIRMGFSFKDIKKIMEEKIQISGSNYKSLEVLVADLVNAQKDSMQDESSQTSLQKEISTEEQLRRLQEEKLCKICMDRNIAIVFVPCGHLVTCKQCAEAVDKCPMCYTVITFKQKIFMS

Each molecule was assayed against E3 ubiquitin-protein ligase XIAP (Homo sapiens) (UniProt P98170) (assay: XIAP antagonists, biochemical, IAP family, fluorescence polarization (AID 1018)). Conditions: XIAP BIR domain, fluorescence polarization peptide displacement; at 20 µM; stronger effect = higher value.

SMILES	displacement
CN(C)CCOC(=O)C(O)(c1ccccc1)C1CCCC1 (stereo not given)	inactive: -4.3%
COc1ccc(OP(C)(=O)Nc2ccccn2)cc1 (stereo not given)	inactive: -3.9%
CCc1ccc(OP(C)(=O)O)cc1	inactive: -5.3%
COc1ccccc1OP(C)(=O)Nc1ccc(C)cc1C (stereo not given)	inactive: -21.2%
CP(=O)(Nc1ccccn1)Oc1ccccc1 (stereo not given)	inactive: -2.8%
O=[N+]([O-])c1cc([N+](=O)[O-])c(Nc2ccccn2)c([N+](=O)[O-])c1	inactive: -2.9%
Cc1c(NP(C)(=O)Oc2ccc(C(C)C)cc2)c(=O)n(-c2ccccc2)n1C (stereo not given)	inactive: -3.4%
COc1ccc(OP(C)(=O)Nc2ccccc2Br)cc1 (stereo not given)	inactive: -7.2%
COc1ccccc1OP(C)(=O)Nc1ccc(C)c(C)c1 (stereo not given)	inactive: -4.4%
Cc1cc(C)cc(OP(C)(=O)Nc2cccc(C(F)(F)F)c2)c1 (stereo not given)	inactive: -6.2%
CP(=O)(OCCOc1ccccc1)OCCOc1ccccc1	inactive: -6.3%
CP(=O)(Nc1ccc(Cl)cc1Cl)Oc1ccccc1 (stereo not given)	inactive: -2.3%
Cc1nc2ccc3ccccc3c2o1.O=[N+]([O-])c1cc([N+](=O)[O-])c(O)c([N+](=O)[O-])c1	inactive: -4.3%
CP(=O)(OC12CC3CC(CC(C3)C1)C2)OC12CC3CC(CC(C3)C1)C2	inactive: -17.9%
CCOC(=O)c1ccc(NP(C)(=O)Oc2ccc(Cl)cc2)cc1 (stereo not given)	inactive: -5.4%
CCc1ccc(OP(C)(=O)Nc2cccnc2)cc1 (stereo not given)	inactive: -5.9%
CP(=O)(Oc1ccccc1)N1CCOC1=O (stereo not given)	inactive: -5.2%
COc1ccccc1OP(C)(=O)Nc1c(C)n(C)n(-c2ccccc2)c1=O (stereo not given)	inactive: -6.7%
COc1ccc(OP(C)(=O)Nc2ccc(Br)cc2)cc1 (stereo not given)	inactive: -4.3%
CCN(CC)CC(O)COC(=O)C(O)(c1ccccc1)C1CCCCC1 (stereo not given)	inactive: -0.3%
CN(C)C(=O)c1c([N+](=O)[O-])cc([N+](=O)[O-])cc1[N+](=O)[O-]	inactive: -1%
CP(=O)(Nc1ccc(Cl)cc1)Oc1ccc(F)cc1 (stereo not given)	inactive: -0.5%
CC(C)(C)c1ccc(OP(C)(=O)O)cc1	inactive: -6.7%
COc1ccccc1OP(C)(=O)Nc1ccccc1Br (stereo not given)	inactive: -4.5%

SMILES	displacement
CCOP(C)(=S)SCC(=O)NC(C)(CC)C(=O)O (stereo not given)	inactive: -2.9%
Cc1ccccc1NP(C)(=O)Nc1ccccc1C	inactive: -2.5%
CP(=O)(Nc1ccc2c(c1)OCCO2)Oc1ccccc1 (stereo not given)	inactive: -2.2%
COc1ccc(NP(C)(=O)Oc2ccccc2OC)cc1 (stereo not given)	inactive: -2.8%
CN(C)CCOC(=O)C(O)(c1ccccc1)C1CCCCC1 (stereo not given)	inactive: -2.9%
COc1ccc(OP(C)(=O)Nc2cccc(Br)c2)cc1 (stereo not given)	inactive: -1.5%
O=[N+]([O-])c1cc([N+](=O)[O-])c(NCC2CCS(=O)(=O)C2)c([N+](=O)[O-])c1 (stereo not given)	inactive: -0.8%
COc1ccc(OP(C)(=O)Nc2ccc(SC(F)(F)F)cc2)cc1 (stereo not given)	inactive: -8.2%
CCOC(=O)c1ccc(NP(C)(=O)Oc2ccc(F)cc2)cc1 (stereo not given)	inactive: -4.4%
CP(=O)(Nc1ccccc1)Oc1ccc(F)cc1 (stereo not given)	inactive: -2.6%
CCN(CC)CCCOC(=O)C(O)(c1ccccc1)C1CCCCC1 (stereo not given)	inactive: -0.1%
CC(C)c1ccc(OP(C)(=O)Nc2ccc(SC(F)(F)F)cc2)cc1 (stereo not given)	inactive: 8.5%
CP(=O)(Nc1ccccc1F)Oc1ccccc1 (stereo not given)	inactive: -3.7%
O=C(OCCN1CCN(CCOCc2ccccc2)CC1)C(O)(c1ccccc1)c1ccccc1	inactive: -0.1%
Cc1cc(C)cc(OP(C)(=O)Nc2ccc(C)cc2C)c1 (stereo not given)	inactive: -3.8%
CCOC(=O)c1ccc(NP(C)(=O)Oc2cc(C)cc(C)c2)cc1 (stereo not given)	inactive: -3.5%
CP(=O)(Nc1cccc(Br)c1)Oc1ccccc1 (stereo not given)	inactive: -7.4%
Cc1cc(C)cc(OP(C)(=O)Nc2ccccn2)c1 (stereo not given)	inactive: -1.8%
Cc1ccc(C)c(NP(C)(=O)Oc2ccccc2)c1 (stereo not given)	inactive: -1.7%
CC1=NCCc2c1[nH]c1ccccc21.O=[N+]([O-])c1cc([N+](=O)[O-])c(O)c([N+](=O)[O-])c1	inactive: -3.9%
CP(=O)(Nc1ccc(SC(F)(F)F)cc1)Oc1ccccc1 (stereo not given)	inactive: -1%
CCCOc1ccc(NP(C)(=O)Oc2ccc(Cl)cc2)cc1 (stereo not given)	inactive: -3%
COc1ccccc1OP(C)(=O)Nc1c(C)cccc1C (stereo not given)	inactive: -6.4%
CN1CCCCC1COC(=O)C1(O)c2ccccc2CCc2ccccc21 (stereo not given)	inactive: -2.8%

SMILES	displacement
O=[N+]([O-])c1cc([N+](=O)[O-])c(-n2nnc3ccccc32)c([N+](=O)[O-])c1	inactive: -0.3%
Cc1nc2ccc3ccccc3c2s1.O=[N+]([O-])c1cc([N+](=O)[O-])c(O)c([N+](=O)[O-])c1	inactive: -1.5%
Cc1cc(C)cc(OP(C)(=O)Nc2ccc(SC(F)(F)F)cc2)c1 (stereo not given)	inactive: -3.8%
CP(=O)(NC(=O)Nc1ccccc1)Oc1ccccc1 (stereo not given)	inactive: 1.4%
CP(=O)(Oc1ccccc1)OC(c1ccccc1)C(F)(F)F (stereo not given)	inactive: -2.5%
Cc1cccc(C)c1OP(C)(=O)Nc1ccc(SC(F)(F)F)cc1 (stereo not given)	inactive: -4.4%
CP(=O)(Nc1ccccn1)Oc1ccc(Cl)cc1 (stereo not given)	inactive: -3.6%
CCOP(C)(=S)SCC(=O)NC(C)C(=O)O (stereo not given)	inactive: -2.2%
CCOC(=O)c1ccc(NP(C)(=O)Oc2ccc(OC)cc2)cc1 (stereo not given)	inactive: -0.8%
COc1ccccc1OP(C)(=O)Nc1ccccc1 (stereo not given)	inactive: 0.5%
CP(=O)(Nc1ccccc1Br)Oc1ccccc1 (stereo not given)	inactive: -23.5%
CP(=S)(Nn1cnnc1)Oc1ccccc1 (stereo not given)	inactive: 1%
Cc1cccc(C)c1OP(C)(N)=O (stereo not given)	inactive: -4.9%
CC(C)(C)c1ccc(OP(C)(=O)Nc2ccc(SC(F)(F)F)cc2)cc1 (stereo not given)	inactive: -4.5%
O=[N+]([O-])c1ccc2c(c1)C=Nc1ccccc1O2	inactive: -6.7%
COc1ccc(OP(C)(=O)Nc2cccc(F)c2)cc1 (stereo not given)	inactive: -7.3%
COc1ccccc1OP(C)(=O)Nc1cc(Cl)ccc1C (stereo not given)	inactive: -6%
Cc1cc(C)cc(OP(C)(N)=O)c1 (stereo not given)	inactive: -8.4%
CCOC(=O)c1ccc(NP(C)(=O)Oc2ccccc2)cc1 (stereo not given)	inactive: -0.9%
Cc1ccc(NP(C)(=O)Oc2ccccc2)c(C)c1 (stereo not given)	inactive: -8.8%
COc1ccccc1OP(C)(=O)Nc1ccc(C)cc1 (stereo not given)	inactive: -7.6%
CCN(CC)CCCOC(=O)C(O)(c1ccccc1)c1ccccc1	inactive: -0.7%
